We go through 66 compounds from PubChem BioAssay AID1274 (Emory University Molecular Libraries Screening Center, 2008).

Chains of the proteins cited; added tags and fusions are not shown. Lines headed by an entry give the natural chain unless they say otherwise; changes in a name come on top.
UniProt P14598: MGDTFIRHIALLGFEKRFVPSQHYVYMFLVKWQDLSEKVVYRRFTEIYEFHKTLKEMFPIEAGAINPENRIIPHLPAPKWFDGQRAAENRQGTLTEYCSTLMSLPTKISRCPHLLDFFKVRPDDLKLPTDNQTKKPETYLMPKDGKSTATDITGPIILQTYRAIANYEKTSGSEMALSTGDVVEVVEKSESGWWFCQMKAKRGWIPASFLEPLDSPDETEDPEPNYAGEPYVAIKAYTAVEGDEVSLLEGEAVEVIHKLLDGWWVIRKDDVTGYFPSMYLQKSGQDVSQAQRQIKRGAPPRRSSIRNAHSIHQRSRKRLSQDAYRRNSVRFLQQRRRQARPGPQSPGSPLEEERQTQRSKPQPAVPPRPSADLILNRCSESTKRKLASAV

This is a selection; strong and weak results do not stand in their true shares. Active and inactive are the calls of the source.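 The calls were made as follows: active = inhibition above about 30% (limit read from the data); inactive = the rest.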

For this experiment, the target named is Neutrophil cytosol factor 1 (Homo sapiens) (UniProt P14598). Briefly: p47phox/p22phox peptide binding inhibitors, primary screen, biochemical, uHTS, NADPH oxidase regulatory subunit (AID 1274).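 Also: 0% = p47phox with labelled peptide and 100% = labelled peptide alone.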 Particulars: fluorescence polarization, 2 h, at 24.7 µM, active compounds read high. (Fluorescence polarisation rises when a labelled molecule tumbles more slowly, as on binding a larger partner.)
A word on the inhibition: it is the drop in the measured response relative to a control, in per cent. For the compound `O=C(/C=C/c1ccccc1)OC1CN2CCC1CC2` (stereo unspecified), the inhibition was inactive: -1.88%.
For `Cc1nn(-c2ccccc2)c2c1P(=O)(N1CCOCC1)N(C)C(c1ccccc1)=N2` (stereo unspecified), the inhibition is inactive: -4.73%.
For the compound `CC1CCC(C(C)C)C(OP(=O)(Nc2ccccn2)c2ccccc2)C1` (stereo unspecified), the inhibition is inactive: -2.8%.
Regarding `O=[As](O)(c1cccs1)c1cccs1`, the inhibition was inactive: 4.3%.
`Cc1ccc(OCC(=O)OC2CN3CCC2CC3)cc1` (stereo unspecified): the inhibition is inactive: -6.85%.
The same measure for `O=P1(Nc2ccc(Br)cn2)COc2ccccc2OC1`: inactive: -1.67%; for `Nc1cccc([As](=O)(O)c2ccccc2)c1`: inactive: -3.67%.
Consider `O=P1(Nc2ncccn2)COc2ccccc2OC1`, for which the inhibition is inactive: 13.9%.
Consider `Clc1n[nH]nc1-c1nn[nH][15n]1`, for which the inhibition is inactive: -15.5%.
In the case of `CC(C)(C)C(=O)NC(Sc1ncccn1)C(Cl)(Cl)Cl` (stereo unspecified), the inhibition is inactive: -5.38%.
Turning to `CCOP(=O)(Nc1ccc(C)cn1)OCC`, the inhibition is inactive: -9.36%.
On to `O=P1(Nc2ccccn2)COc2ccccc2OC1`, for which the inhibition was inactive: 1.21%.
For `CC(C)/C=N\N=C(\N)N[N+](=O)[O-]`, the inhibition was inactive: 1.5%.
With `CN(C(=O)Cc1ccc(Cl)c(Cl)c1)[C@@H]1CCCC[C@H]1N1CCCC1` the figure was inactive: -12%.
Turning to `Cc1cccc(OCC(=O)OC2CN3CCC2CC3)c1` (stereo unspecified), the inhibition was inactive: -2.89%.
As to `O=[As](O)(c1cccc(O)c1)c1cccc(O)c1`, the inhibition was inactive: -8.64%.
With `O=[As](O)(O)c1cccnc1` the figure was inactive: -53.5%; with `COc1cc(C(=O)NCC2(N3CCOCC3)CCCCC2)cc(Cl)c1OC(C)C`, inactive: -2.97%.
Take `O=C(OC1CN2CCC1CC2)c1ccc(Cl)cc1` (stereo unspecified): the inhibition was inactive: 0.84%.
For `COc1cc(C2NCCC3(OCCO3)C2(C)C)cc(OC)c1OC` (stereo unspecified), the inhibition is inactive: -12.8%.
On to `CCOP(=O)(Nc1cccc2ccccc12)OCC`, for which the inhibition is inactive: -5.4%.
On to `CCCOP(=S)(Nc1nc(N)cc(=O)[nH]1)OCCC`, for which the inhibition was inactive: 0.68%.
`Nc1cccc2c([As](=O)(O)O)cccc12`: the inhibition is inactive: 10.6%.
As for `Cc1ccc(NCCc2c([N+](=O)[O-])cc([N+](=O)[O-])cc2[N+](=O)[O-])cc1`, the inhibition is inactive: -11%.
Consider `Nc1ccccc1[As](=O)(O)c1ccccc1`, for which the inhibition was inactive: 1.63%.
Consider `O=C(O)COc1ccc([As](=O)(O)O)cc1[N+](=O)[O-]`, for which the inhibition is inactive: 2.1%.
The same measure for `CS(=O)(=O)c1cc([N+](=O)[O-])c2no[n+]([O-])c2c1`: inactive: 29.9%; for `CCOP1(=S)c2c(C)nn(CCC#N)c2N=C(c2ccccc2F)N1C` (stereo unspecified): inactive: -9.88%.
Regarding `O=P(Nc1nccs1)(Oc1ccccc1)Oc1ccccc1`, the inhibition is inactive: -11%.
The same measure for `O=P(Nc1nccs1)(c1ccccc1)c1nc2ccccc2s1` (stereo unspecified): active: 61.7%.
With `O=[N+]([O-])c1ccc2c(c1)nnn2O`, the inhibition is inactive: -5.61%.
Regarding `CCOP1(=S)c2c(C)nn(CCC#N)c2N=C(c2ccc(F)cc2)N1C` (stereo unspecified), the inhibition was inactive: -3.56%.
The same measure for `CN(C(=O)Cc1ccccc1)[C@@H]1CC[C@]2(CCCO2)C[C@H]1N1CCCC1`: inactive: 0.11%; for `NC(=O)Nc1ccc([As](=O)(O)O)cc1`: inactive: -14.9%.
Turning to `Cc1ccc2nc3c(c(C)c2c1)CC(C(Cl)Cl)S3` (stereo unspecified), the inhibition is inactive: -9.87%.
For the compound `Cc1ccc(OP(=O)(Nc2ccc([N+](=O)[O-])cn2)Oc2ccc(C)cc2)cc1`, the inhibition was inactive: -6.7%.
As to `O=[As](O)(c1ccc(O)cc1)c1ccccc1O`, the inhibition is inactive: -9.96%.
For `C[As](=O)(O)c1cccc(C(=O)O)c1`, the inhibition was inactive: -4.7%.
Take `CC(C)NC(=O)NP(=O)(Oc1ccccc1)Oc1ccccc1`: the inhibition is inactive: -9.6%.
In the case of `CCN(CC)C(=S)SC(NC=O)C(Cl)(Cl)Cl` (stereo unspecified), the inhibition was inactive: -17.9%.
`O=[N+]([O-])c1cc([N+](=O)[O-])c(-c2ccn[nH]2)s1`: the inhibition is inactive: -1.52%.
As to `CC(C)c1ccc(OP(=O)(Nc2ccccn2)Oc2ccccc2F)cc1` (stereo unspecified), the inhibition was inactive: -5.86%.
With `ClCCSc1nnc(-c2cccnc2)o1` the figure was inactive: -1.54%; with `COc1ccc2nc(NP(=O)(c3ccccc3)c3ccccc3)sc2c1`, inactive: -2.24%; with `COc1cc(I)ccc1[As](=O)(O)O`, inactive: -7.96%.
On to `O=C(OC1CN2CCC1CC2)C12CC3CC(CC(C3)C1)C2` (stereo unspecified), for which the inhibition was inactive: -9.28%.
`Cc1cc(=O)[nH]c(N[N+](=O)[O-])n1`: the inhibition is inactive: -3.52%.
Consider `Cc1c2c(nc3ccccc13)SC(C(Cl)Cl)C2` (stereo unspecified), for which the inhibition was inactive: -13.9%.
Consider `COc1ccc(N/C(=N/P(=O)(N2CCOCC2)N2CCOCC2)N2CCOCC2)cc1`, for which the inhibition is inactive: 2.74%.
For `O=C(COc1ccccc1)OC1CN2CCC1CC2` (stereo unspecified), the inhibition is inactive: -4.37%.
With `COP1(=S)c2c(C)nn(CCC#N)c2N=C(c2ccc(F)cc2)N1C` (stereo unspecified), the inhibition is inactive: 5.76%.
In the case of `CCC(C)N(CC(C)C)C(=S)SC(NC(C)=O)C(Cl)(Cl)Cl` (stereo unspecified), the inhibition is inactive: -5.78%.
With `CCOC(=O)c1ccc(NC(=O)C(C)(CCl)SC)cc1` (stereo unspecified), the inhibition was inactive: -19.9%.
For `Cc1cc(SC(NC(=O)c2ccccc2)C(Cl)(Cl)Cl)nc(C(C)C)n1` (stereo unspecified), the inhibition was inactive: -19.7%.
As to `CCOC(=O)Nc1ccc([As](=O)(O)O)c(O)c1`, the inhibition was inactive: -7.35%.
As for `O=[N+]([O-])c1ccc(Nc2ccc(Oc3ccc([N+](=O)[O-])cc3[N+](=O)[O-])cc2)c([N+](=O)[O-])c1`, the inhibition is inactive: -10.1%.
`O=P(Nc1ccccn1)(c1cccc2ccccc12)c1cccc2ccccc12`: the inhibition is inactive: -15.2%.
In the case of `Cc1cc(SC(NC=O)C(Cl)(Cl)Cl)ncn1` (stereo unspecified), the inhibition is inactive: -3.89%.
For `CCOC(=O)Nc1cccc([As](=O)(O)O)c1`, the inhibition was inactive: 5.38%.
The same measure for `O=C(Nc1cc([As](=O)(O)O)ccc1O)c1ccccc1`: inactive: -8.26%; for `O=[N+]([O-])c1cccc(NC2=NCC(CBr)S2)c1` (stereo unspecified): inactive: -9.56%.
Consider `O=C(O)CNc1ccc([As](=O)(O)O)cc1`, for which the inhibition is inactive: 2.76%.
On to `CC(C)(C)C(=O)NC(Sc1ccncn1)C(Cl)(Cl)Cl` (stereo unspecified), for which the inhibition was inactive: 0.59%.
As for `O=[N+]([O-])c1ncn(CCn2ncnc2[N+](=O)[O-])n1`, the inhibition was inactive: -1.47%.
For `O=[N+]([O-])c1cccc2n[nH]nc12`, the inhibition is inactive: -5.05%.
For `CC(=O)N1C2C3N(C(C)=O)C1C1N(C(C)=O)C(C(N1C(C)=O)N3C(C)=O)N2C(C)=O`, the inhibition was inactive: -9.94%.
